The values that follow are results of earlier work, collected in US20130142868A1 (priority 2010, published 2013).

One may read the log P as a log measure of how a compound divides between an organic and an aqueous phase.

Each structure is given as a SMILES string. Only a part of the results on these compounds is given; other tests are left out.

The conditions of this data set: cited from earlier work.

On to `CCC(=O)N(c1ccccc1)C1CCN(CCc2ccccc2)CC1`, for which the log P is 3.9.
